US20230390282A1, “TREATMENT OF EYE CONDITIONS” (The University of Birmingham, priority 2020, published 2023)
Entries after “also recorded” stand apart in the source; their conditions may differ.

How the values were obtained:
dorsal column (DC) axons = assay: T8 dorsal column (DC) crush model of spinal cord injury: axon regeneration, electrophysiology, sensory and locomotor tests; format: in vivo, rat; conditions: for negative CAP amplitudes: all stimulation intensities; for time after treatment at which mean tape sensing/removal times are restored to normal: sensory function after DC injury
Experimental: (§1) DC crush injury model. Rats were injected subcutaneously with 0.05 ml Buprenorphine to provide analgesia prior to surgery and anaesthetised using 5% of Isoflurane in 1.8 ml/l of O2 with body temperature and heart rate monitored throughout surgery.
(§2) Chk2 inhibition studies in the DC crush injury model. […] Chk1i (LY2603618) was used at equimolar concentrations for each experiment. Rats were killed in a rising concentration of CO2 at either 28 d for immunohistochemistry and western blot analyses or 6 weeks for electrophysiology and functional tests.
(§3) Sham treated animals (partial laminectomy but no DC injury) were also included as additional controls. At 4 weeks after DC injury and treatment, ipsilateral L4/L5 DRG pairs were harvested, total RNA extracted using Trizol reagent as described above and knock down of Chk1 and Chk2 mRNA knockdown using quantitative qRT-PCR, as described above. Contralateral L4/L5 DRG pairs were treated the same as above and used as controls. […] This included western blot to determine pChk1 and pChk2 levels after shChk2 treatment. For these experiments, animals were randomly assigned to DC+shNull and DC+shChk2 groups each comprising n=6 rats and repeated on 3 independent occasions (total n=18 rats/group). […] Animals were allowed to survive for 6 weeks with functional testing (tape sensing+removal and ladder crossing tests) performed pre- and post-DC injury as described below. Electrophysiology was performed on the same set of animals at 6 weeks after DC injury and treatment as described below.
Quantification of DC axon regeneration. […] Briefly, the number of intersections of GAP43^+ fibers were counted through a dorsoventral orientated line in reconstructed serial parasagittal sections of the cord (serial 50μm-thick sections ˜70-80 sections/animal; n=10 rats/treatment)). Axon number was then represented as % of fibers counted at 4 mm above the lesion, where the DC was intact.
Electrophysiology. […] Briefly, with the experimenter masked to the treatment conditions, silver wire electrodes applied single-current pulses (0.05 ms) through a stimulus isolation unit in increments (0.2, 0.3, 0.6, 0.8, and 1.2 mA) at L1-L2 and compound action potentials (CAP) were recorded at C4-C5 along the surface of the midline spinal cord. Spike 2 software was then used to calculate CAP amplitudes between the negative deflection after the stimulus artifact and the next peak of the wave. CAP area was calculated by rectifying the negative CAP component (full-wave rectification) and measuring its area. At the different stimulation intensities. […] Representative CAP traces are processed output data from Spike 2 software.
Functional tests. […] Briefly, animals (n=6 rats/group, 3 independent repeats; total n=18/group) received training to master traversing the horizontal ladder for 1w before functional testing. Baseline parameters for all functional tests were established 2-3 d before injury. Animals were then tested 2 d after DC lesion+treatment and then weekly for 6 weeks. Experiments were performed by 2 observers (treatment conditions were masked) in the same order, the same time of day and each test performed for 3 individual trials. Horizontal ladder test: This tests the animals locomotor function and is performed on a 0.9-meter-long horizontal ladder with a diameter of 15.5 cm and randomly adjusted rungs with variable gaps of 3.5-5.0 cm. The total number of steps taken to cross the ladder and the left and right rear paw slips being were recorded and the mean error rate was then calculated by dividing the number of slips by the total number of steps taken.

[1] = tested on: pChk2 T68, pChk2 T383, pChk1; assay: Western blot of pChk2/pChk1 in L4/L5 DRG after DC injury; format: in vivo, rat; conditions: 28 days/4 weeks after injury; for Chk2 phosphorylation (pChk2 T68, pChk2 T383) after DC injury: small molecules intrathecal (BML-277 5 μg, Prexasertib 3 μg), shRNA plasmid intra-DRG with PEI
Experimental: as §1, §2, §3
(§4) Protein extraction and western blot analysis.

RGC [2] = tested on: RGC
γH2Ax = conditions: retina, 30 days after induction of glaucoma
[3] = tested on: dorsal root ganglion neuron (DRGN) cultures; assay: Primary adult rat DRGN cultures: survival and neurite outgrowth; format: cell-based; conditions: 4 days in culture
Experimental: (§5) Rat DRGN and retinal cultures. […] Cells were cultured for 4 days in a humidified chamber at 37° C. and 5% CO2 before being subjected to quantitative RT-PCR or immunocytochemistry, as described below.

[4] = tested on: Chk2 phosphorylation (Thr68, Thr383); conditions: DRGN cultures, western blot
Experimental: as §5, §4

RGC [5] = assay: Rat retinal cultures: RGC survival and neurite outgrowth; format: cell-based; conditions: 4 days
Experimental: as §5

[6] = Chk2i: 3 weeks after injury, others over the whole 6 weeks
[7] = compared to all other treatment groups

## NC(=O)c1ccc2[nH]c(-c3ccc(Oc4ccc(Cl)cc4)cc3)nc2c1 [BML-277]
Dorsal column (DC) axons; 6 weeks after DC injury
  mean CAP area at different stimulation intensities: improved significantly
  negative CAP amplitudes: restored
Dorsal column (DC) axons
  time after treatment at which mean tape sensing/removal times are restored to normal: 4 weeks
[1]
  Chk2 phosphorylation (pChk2 T68, pChk2 T383) after DC injury: optimally suppresses

## COc1cc2nc(-c3cc(F)ccc3O)nc(N[C@@H]3CNC[C@H]3C(C)(C)O)c2cc1OC [Chk2i]
Dorsal column (DC) axons; 6 weeks after DC injury
  CAP area improvement compared to the vehicle or Chk1i treatments: > 90%
  CAP area, within x% of that observed for sham-treated control groups: ≤ 20%
  mean CAP area at different stimulation intensities: restored
  negative CAP amplitudes: increased; also recorded: restored
Dorsal column (DC) axons; [6]
  ladder crossing test (locomotor function) outcome: indistinguishable from sham-treated animals
  tape sensing/removal test (sensory function) outcome: indistinguishable from sham-treated animals
Dorsal column (DC) axons; GAP43+ axons, daily intrathecal injections
  axons regenerating 6 mm rostral to the lesion site: 23.7%
Dorsal column (DC) axons; after 2 days of treatment
  ladder crossing test performance compared to vehicle or Chk1i: significant improvements
  tape sensing/removal test performance compared to vehicle or Chk1i: significant improvements
Dorsal column (DC) axons
  time after treatment at which mean tape sensing/removal times are restored to normal: 3 weeks
RGC [2]; 24 days after ONC
  RGC axon regeneration: significant RGC axon regeneration
RGC [2]; rat, in vivo
  RGC survival: > 90%
[1]
  Chk1 phosphorylation (pChk1 levels) after DC injury: No changes
  Chk2 phosphorylation (pChk2 T68, pChk2 T383) after DC injury: abolished
γH2Ax
  levels of γH2Ax: attenuates
[3]
  % DRGN with neurites: 82%
[3]; NBA-treated controls 40%
  DRGN survival: 90%
[3]; controls 12 μm
  mean neurite length: 520 μm
[4]
  Chk2 phosphorylation (Thr68, Thr383): suppressed
RGC [5]; [7]
  % RGC with neurites: enhanced
  mean neurite length of RGC: enhanced
RGC [5]; compared to control NBA, CNTF or Chk1i
  RGC survival in culture: significantly enhanced

## COc1cccc(OCCCN)c1-c1cc(Nc2cnc(C#N)cn2)n[nH]1 [Prexasertib]
Dorsal column (DC) axons; 6 weeks after DC injury
  mean CAP area at different stimulation intensities: improved significantly
  negative CAP amplitudes: restored
Dorsal column (DC) axons
  time after treatment at which mean tape sensing/removal times are restored to normal: 3 weeks
